Results: publication PMC11748481
Some compounds may have been tested in ways that are not shown here.

Experiment: Plasma pharmacokinetics after subcutaneous administration (noncompartmental analysis)
Settings: 300 μg/kg subcutaneous
[1] = male Sprague–Dawley rats, mean ± S.E.M (n = 6)

Q: Which Tmax (male Sprague–Dawley rats (n = 6)) does the source give for `CCC(=O)N(c1ccccc1)C1CCN(CCc2ccccc2)CC1` here?
A: 30 min

Q: What about the “AUC0-∞” value [1] of the same molecule?
A: 112.83 ± 10.82 ng/mL X h

Q: And the Cmax [1]?
A: 82.12 ± 11.78 ng/mL
